Assay results published in patent US20210145806A1, “Methods of Treating Brain Cancer and Related Diagnostic Methods” (Emory University, priority 2019, published 2021).

Legend:
[1] = tested on: SHH-activated MB cells (DAOY, UW228 and ONS-76); assay: Soft agar colony formation assay (CFA); conditions: composite of DAOY, UW228, ONS-76; compared to vehicle control
[2] = tested on: SmoA1 murine SHH-activated MB organotypic slice culture; assay: Murine MB organotypic slice culture (OSC), cell death by cleaved caspase 3 staining; conditions: 24 h treatment; compared to control

4-hydroxycyclophosphamide
concentration at which colony formation is inhibited [1]: 3 µM
concentration giving significant increase in cell death (CC3 standardized to DAPI) [2]: 2 µM
